Data: ChEMBL document CHEMBL3351472, “Synthesis and Biological Activity of 25-Hydroxy-2-methylene-vitamin D3 analogues monohydroxylated in the A-ring” (J Med Chem, 2014)

Test system: Rattus norvegicus
Test: Effect on intestinal calcium transport in weanling Sprague-Dawley rat assessed as increase in ratio of serosal to mucosal calcium level at 780 pmol/day, ip administered as 4 consecutive daily doses measured 24 hrs after last dose
Assay type: functional

Compound `C=C1/C(=C\C=C2/CCC[C@]3(C)[C@@H]([C@H](C)CCCC(C)(C)O)CC[C@@H]23)C[C@@H](O)C[C@@H]1O` [CALCITRIOL] has a Ratio of 7.7.
